# In PubChem BioAssay AID2599 (Sanford-Burnham Center for Chemical Genomics, 2010):
# Protein sequences, listed by entry. Tags and fused reporters are not part of them. Residues count along the entry.
# UniProt Q9GZR1, 628-1112 limits assumed: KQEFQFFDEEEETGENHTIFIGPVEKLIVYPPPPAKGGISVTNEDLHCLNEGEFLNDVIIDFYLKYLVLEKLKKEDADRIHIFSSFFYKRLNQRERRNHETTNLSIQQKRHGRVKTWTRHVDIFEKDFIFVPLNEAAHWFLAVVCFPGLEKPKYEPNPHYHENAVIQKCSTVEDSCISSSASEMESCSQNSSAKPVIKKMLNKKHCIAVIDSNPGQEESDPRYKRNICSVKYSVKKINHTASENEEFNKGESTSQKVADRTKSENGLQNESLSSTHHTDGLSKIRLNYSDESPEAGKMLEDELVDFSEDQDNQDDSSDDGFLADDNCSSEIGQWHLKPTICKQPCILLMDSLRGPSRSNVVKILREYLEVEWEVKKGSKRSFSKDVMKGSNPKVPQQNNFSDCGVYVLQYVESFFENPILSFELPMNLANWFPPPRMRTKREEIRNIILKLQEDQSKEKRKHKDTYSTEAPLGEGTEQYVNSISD
# The entries are a selection whose mix differs from that of the whole data set. Calls of active or inactive are those of the source.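 The calls were made as follows: active = inhibition above about 50% at the single tested dose (limit read from the data); inactive = the rest.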
# Biological target: Sentrin-specific protease 6 (Homo sapiens) (UniProt Q9GZR1)
# Experiment: inhibition of human SENP6 catalytic domain – biochemical, luminescence, uHTS, primary screen (AID 2599);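 also: plate controls were DMSO wells with enzyme for no effect and DMSO wells lacking enzyme for full effect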
# Conditions: Recombinant SENP6 catalytic domain, aminoluciferin luminescence; at 10 µM; hits give high values
row,Compound,inhibition
1,O=C(NCC1(N2CCOCC2)CCCCC1)c1cc(=O)[nH]c2ccccc12,inactive: -5.87%
2,COc1cc(C(=O)NCC2(N3CCCCC3)CCCCC2)ccc1OC(F)F,inactive: 8.87%
3,CC(C)c1ccc(C(=O)NCC2(N3CCOCC3)CCCCC2)cc1,inactive: 1.22%
4,COc1ccc(NC2CCN(C(=O)OC(C)(C)C)CC2)cc1,inactive: 1.08%
5,CN1CCN(CCOC(=O)C(O)(c2ccccc2)c2ccccc2)CC1,inactive: 1.27%
6,O=C(NCC1(N2CCCCC2)CCCCC1)c1cccc(C(F)(F)F)c1,inactive: -27.7%
7,N#CC1(Nc2ccccc2)CCN(CCc2ccccc2)CC1,inactive: -6.42%
8,CCN1CCC(Nc2ccc(Cl)cc2)CC1,inactive: 11.9%
9,O=C(NCC1(N2CCCCC2)CCCCC1)c1cccc([N+](=O)[O-])c1,inactive: -25.8%
10,CSc1ccc(C(=O)NCC2(N3CCOCC3)CCCCC2)cc1,inactive: -18.6%
11,O=C(NCC1(N2CCCCC2)CCCCC1)c1ccc(OC(F)F)cc1,inactive: -5.48%
12,CN1CCC(Nc2cccc(F)c2)CC1,inactive: -6.49%
13,O=C(NCC1(N2CCCCC2)CCCCC1)c1cncc(Br)c1,inactive: -9.95%
14,O=C(NCC1(N2CCOCC2)CCCCC1)c1cc(F)c(F)cc1Cl,inactive: -1.92%
15,COc1cc(OC)c(C(=O)NCC2(N(C)C)CCCCC2)cc1OC,inactive: -34%
16,CC(C)c1ccc(NC2CCN(C(=O)OC(C)(C)C)CC2)cc1,inactive: -12.1%
17,CN(C)c1cccc(C(=O)NCC2(N3CCCCC3)CCCCC2)c1,inactive: 10.5%
18,COc1ccc(CN(CCCl)CCCl)cc1Cl,inactive: -10.1%
19,COc1ccc(Cl)cc1C(=O)NCC1(N2CCOCC2)CCCCC1,inactive: 9.36%
20,O=C(NCC1(N2CCCCC2)CCCCC1)c1ccc(Cl)s1,inactive: -1.89%
21,N#CC1(Nc2ccccc2)CCN(Cc2ccccc2)CC1,inactive: -14.2%
22,O=C(OC1CN2CCC1CC2)C1c2ccccc2Oc2ccccc21 (stereo not drawn),inactive: 16.7%
23,CCOC(=O)N1CCC(Nc2ccc(OC)cc2)CC1,inactive: -5.88%
24,Cc1cc(C)cc(N(C(=O)c2ccccc2)C2CCN(C(=O)OC(C)(C)C)CC2)c1,inactive: -28.9%
25,O=C(NCC1(N2CCCCC2)CCCCC1)c1ccc(Cl)nc1,inactive: -17%
26,O=C(NCC1(N2CCOCC2)CCCCC1)c1cc2ccccc2o1,inactive: -0.195%
27,CSc1ccccc1C(=O)NCC1(N2CCCCC2)CCCCC1,inactive: -17.2%
28,CC(C)(C)OC(=O)N1CCC(N(C(=O)c2ccccc2)c2ccc(F)cc2)CC1,inactive: 11.1%
